Results on two molecules are retold here after paper PMC7092418 (Genes and Environment, 2020).

Read-outs that look alike come from different tables or passages of the source.

Data set [1] relates to Chinese hamster cells. Conditions: cited from earlier work.
For data set [2], the system named is human skin fibroblasts. The conditions noted are these: cited from earlier work.
The subject of data set [3] is S. typhimurium YG9028. As to the kind of experiment: Ames mutagenicity assay, strain YG9028 overexpressing PolRI* (MucA' + MucB). The conditions noted are these: slope of dose-response curve, AF-2: only zero plus 2 first doses. On the technique in general: The Ames test uses bacterial strains that need an amino acid and regain growth without it when mutated back.
The subject of data set [4] is S. typhimurium TA100. As to the kind of experiment: Ames mutagenicity assay, strain TA100 (hisG46, pKM101). The conditions noted are these: slope of dose-response curve, S9 for AFB1, AF-2: only zero plus 2 first doses.
In data set [5] the test system is S. typhimurium YG9029. The conditions noted are these: slope of dose-response curve, AF-2: only zero plus 2 first doses.
The test system of data set [6] is S. typhimurium TA1535. Kind of data set: Ames mutagenicity assay, strain TA1535 (hisG46). The conditions noted are these: S9 for AFB1.

As for azidoalanine, the “Genotoxicity (SCEs and unscheduled DNA synthesis)” value in data set [1] and in data set [2] was “did not show any appreciable genotoxicity” each time.

`[N-]=[N+]=NCC(O)CO` (stereo not shown): the Specific mutagenicity is on record as 0.128 revertants/plate/nmole in data set [3] (YG9028, IPTG 0.2 mM (induced lac promoter)); 0.42 revertants/plate/nmole in data set [3] (YG9028, no IPTG (uninduced lac promoter)); 0.646 revertants/plate/nmole in data set [4] (TA100, IPTG 0.2 mM in top agar); 0.817 revertants/plate/nmole in data set [4] (TA100, no IPTG); 0.464 revertants/plate/nmole in data set [5] (YG9029, IPTG 0.2 mM (induced lac promoter)); 0.753 revertants/plate/nmole in data set [5] (YG9029, no IPTG (uninduced lac promoter)). In addition, the Specific mutagenicity amounted to 1.151 revertants/plate/nmole in data set [6] (TA1535, IPTG 0.2 mM in top agar, slope of dose-response curve) and 1.047 revertants/plate/nmole in data set [6] (TA1535, no IPTG, slope of dose-response curve (linear regression), 20-min preincubation).
